Results reported in patent publication US20250161478A1, “LINKER PAYLOADS AND CONJUGATES THEREOF” (priority 2021, published 2025).

How the values were obtained:
[1] = Maleimide conjugate de-conjugation in the presence of oxidized glutathione; assay type: physicochemical; details: 5 mM oxidized glutathione, 50 mM HEPES pH 7.4, 37° C., 10-day experiment
Protocol: Transfer of the linker-payload from the ADC to glutathione was monitored by MALDI-TOF MS at 0, 1, 2, 3, 7 and 10 days. Cysteamine-linker-payload was made for use as an internal standard by incubating MA-Ac-β-Ala-Val-Ser(O-Glc)-PAB-MMAU with an excess of cysteamine for two hours at room temperature, after which the formation of the correct product was verified by MALDI-TOF MS. The timepoint samples (á 5 μL) were purified with miniaturized Poros R2 columns together with the internal standard, same amount of standard molecule in each analysis. The samples were eluted onto target plate into two spots. DHB was used as a matrix. The averages of the corresponding peaks of internal standard and sample in the two spots were calculated at the flowing m/z values: cysteamine-AuM (internal standard, maleimide not hydrolyzed) [M+H]^+ 1676.9, [M+Na]^+ 1698.9, [M+2Na—H]^+1720.9; glutathione-AuMc [M+H]^+ 1892.1, [M+Na]^+ 1914.1, [M+2Na—H]^+1936.1; glutathione-AuM (hydrolyzed maleimide) [M+H]^+ 1925.1, [M+Na]^+ 1947.1, [M+2Na—H]^+1969.1. The corresponding peak intensities were summed, and the ratios of linker-associated signals and the internal standard were calculated.

[2] = system: HCC-1954 trastuzumab-resistant Her2-positive xenograft tumors; experiment: In vivo efficacy in HCC-1954 tumor xenograft mice; parameters: species or system immunodeficient nude mice (Balb/cAnNRj-Foxn1nu-nu); details: 10 mg/kg i.v. QWx4, six mice/group
From the text: In vivo anti-tumor efficacy of ADC of trastuzumab and maleimidoacetyl-β-Ala-Val-Ser(Glc)-PAB-MMAU, DAR=8, prepared and maleimide-stabilized as described above (MMAU-ADC) was compared to trastuzumab. HCC-1954 cancer cells were obtained from the ATCC (USA) and cultured according to the manufacturer's instructions to study efficacy of antibody-drug conjugates in trastuzumab-resistant Her2-positive xenograft tumors in immunodeficient nude mice (Balb/cAnNRj-Foxn1nu-nu). […] No potential signs of toxicity were recorded. […] Tumor growth was followed by palpation. […] Unconjugated antibody (trastuzumab: Herceptin, Roche) was used in this study as the control treatment.

TRAuMc: trastuzumab conjugated with MA-caproyl-Val-Ser(β-Glc)-PAB-MMAU (AuMc), DAR 7.9
de-conjugation rate compared to TRAuM [1]: 10 fold

trastuzumab: unconjugated antibody (trastuzumab: Herceptin, Roche), control treatment [reference compound]
average tumor size ([2]; during 61 day treatment and follow-up): over 500 mm^3

MMAU-ADC: ADC of trastuzumab and maleimidoacetyl-β-Ala-Val-Ser(Glc)-PAB-MMAU, DAR=8
mice with tumors shrinked without regrowth ([2]; 61 days treatment and follow-up): 6/6
